Experimental data from PubChem BioAssay AID449728 (The Scripps Research Institute Molecular Screening Center, 2010).
This is a selection; strong and weak results do not stand in their true shares. The source made the active and inactive calls.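 How the source made its calls: active means inhibition above the campaign's mean inhibition across all tested compounds plus 3 SD (cut at about 9.9% in these data); inactive means the rest.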

Experiment: E. coli V3065 growth inhibition, primary screen, counter-screen for AddAB inhibitor project, absorbance, OD600 (AID 449728);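 further: uninfected addAB+ strain grown without phage in ampicillin broth; 0% = DMSO wells and 100% = ciprofloxacin 0.95 µg/ml wells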
Settings: 18 h, at 11.9 µM, hits give high values
For CCC(=O)N(c1ccccc1)C1(COC)CCN(CCc2cccs2)CC1, the inhibition was inactive: -0.44%. For CCC(=O)N(c1ccccc1)C1(COC)CCN(CCn2nnn(CC)c2=O)CC1, the inhibition was inactive: -0.44%.
